Earlier results, collected in patent US10537567B2, “Kinase inhibitors for treatment of disease” (BioAxone BioSciences, Inc., priority 2017, dated 2020).

Biological target: PKA (Homo sapiens, UniProt P17612)
Conditions: cited from earlier work

For O=c1[nH]ccc2c(S(=O)(=O)N3CCCNCC3)cccc12 [hydroxyfasudil], the “Binding to PKA” value is given as “all bind PKA”.
